Values quoted from earlier work in article PMC8048568, “Synthesis of σ Receptor Ligands with a Spirocyclic System Connected with a Tetrahydroisoquinoline Moiety via Different Linkers” (Chemmedchem, 2021).
pKi: −log10 of the molar value.

Molecular target: σ2 receptor
Conditions: read-out: K i σ2; cited from earlier work

Q: With `COc1cccc2c1CCCC2CCCN1CCN(C2CCCCC2)CC1` (stereo not shown) [PB28] as the compound, how does the pKi read?
A: 9.17
